Source: ChEMBL document CHEMBL1133477, “Discovery of novel p-arylthio cinnamides as antagonists of leukocyte function-associated antigen-1/intracellular adhesion molecule-1 interaction. 1. Identification of an additional binding pocket based on an anilino diaryl sulfide lead” (J Med Chem, 2000)

By UniProt entry, the sequences of proteins in these tests, tags left out. Where a name states a change or a piece, a line headed by the entry shows the natural chain unless it says otherwise.
UniProt P05107, whole entry: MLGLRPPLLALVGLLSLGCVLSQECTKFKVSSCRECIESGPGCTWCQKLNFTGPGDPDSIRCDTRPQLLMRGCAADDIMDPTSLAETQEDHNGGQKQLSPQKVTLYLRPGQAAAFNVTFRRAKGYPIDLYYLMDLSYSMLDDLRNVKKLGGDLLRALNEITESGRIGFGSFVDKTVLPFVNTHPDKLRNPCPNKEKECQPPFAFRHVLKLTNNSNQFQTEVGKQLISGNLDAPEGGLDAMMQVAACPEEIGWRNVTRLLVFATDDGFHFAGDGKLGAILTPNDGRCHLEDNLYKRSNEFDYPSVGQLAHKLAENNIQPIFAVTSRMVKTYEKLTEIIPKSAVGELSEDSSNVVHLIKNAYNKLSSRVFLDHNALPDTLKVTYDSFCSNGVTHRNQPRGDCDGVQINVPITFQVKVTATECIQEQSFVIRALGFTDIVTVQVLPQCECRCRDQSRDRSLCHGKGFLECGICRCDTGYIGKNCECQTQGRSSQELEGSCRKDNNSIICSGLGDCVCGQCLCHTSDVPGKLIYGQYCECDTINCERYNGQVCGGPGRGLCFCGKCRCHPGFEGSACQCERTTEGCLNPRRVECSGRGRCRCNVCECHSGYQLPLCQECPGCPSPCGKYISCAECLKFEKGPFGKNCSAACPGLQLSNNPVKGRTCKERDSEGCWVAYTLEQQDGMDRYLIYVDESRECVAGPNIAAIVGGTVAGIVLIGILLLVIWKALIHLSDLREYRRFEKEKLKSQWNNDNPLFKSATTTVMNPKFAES
UniProt P20701: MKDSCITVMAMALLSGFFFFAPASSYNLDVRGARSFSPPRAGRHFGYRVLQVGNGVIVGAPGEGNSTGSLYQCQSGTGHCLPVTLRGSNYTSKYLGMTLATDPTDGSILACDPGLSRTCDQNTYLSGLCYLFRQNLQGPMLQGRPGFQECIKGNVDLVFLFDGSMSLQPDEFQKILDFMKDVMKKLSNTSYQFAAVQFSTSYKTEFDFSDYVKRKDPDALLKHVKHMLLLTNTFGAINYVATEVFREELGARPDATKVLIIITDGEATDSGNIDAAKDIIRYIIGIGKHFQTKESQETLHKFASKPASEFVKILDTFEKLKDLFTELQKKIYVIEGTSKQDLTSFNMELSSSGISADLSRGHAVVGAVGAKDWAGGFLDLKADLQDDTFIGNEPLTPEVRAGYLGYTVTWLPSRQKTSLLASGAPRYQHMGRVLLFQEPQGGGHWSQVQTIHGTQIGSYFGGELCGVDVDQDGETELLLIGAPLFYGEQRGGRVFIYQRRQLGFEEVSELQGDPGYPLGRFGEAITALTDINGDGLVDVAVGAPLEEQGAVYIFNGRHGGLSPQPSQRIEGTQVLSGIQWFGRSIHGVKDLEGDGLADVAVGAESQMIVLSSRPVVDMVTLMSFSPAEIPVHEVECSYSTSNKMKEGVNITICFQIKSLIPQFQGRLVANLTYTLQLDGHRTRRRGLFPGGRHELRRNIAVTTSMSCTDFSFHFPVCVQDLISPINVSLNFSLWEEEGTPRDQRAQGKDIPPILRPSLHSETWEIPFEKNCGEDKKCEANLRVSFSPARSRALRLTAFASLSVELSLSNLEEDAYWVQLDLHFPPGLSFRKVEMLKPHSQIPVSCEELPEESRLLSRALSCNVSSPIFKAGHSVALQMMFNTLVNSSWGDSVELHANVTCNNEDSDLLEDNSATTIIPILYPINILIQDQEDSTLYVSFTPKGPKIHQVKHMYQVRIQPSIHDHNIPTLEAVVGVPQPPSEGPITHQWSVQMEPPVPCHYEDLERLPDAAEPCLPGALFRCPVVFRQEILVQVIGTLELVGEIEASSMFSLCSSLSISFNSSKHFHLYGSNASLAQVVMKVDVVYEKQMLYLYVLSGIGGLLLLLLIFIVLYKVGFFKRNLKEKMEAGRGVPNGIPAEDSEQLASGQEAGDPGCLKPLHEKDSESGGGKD

Target: Intercellular adhesion molecule (ICAM-1), Integrin alpha-L/beta-2 (Homo sapiens, UniProt P05107+P20701)
Test: Ability to block the interaction between integrin LFA-1 and its adhesion partner ICAM-1 in a time-resolved fluorescent LFA-1/ICAM-1 biochemical interaction assay
Format: protein-complex assay

Question: For CC(=O)N1CCN(C(=O)/C=C/c2ccc(Sc3ccccc3C(C)C)c([N+](=O)[O-])c2)CC1 [A-286982], which IC50 is on record?
Answer: 44 nM
